Values of other authors in patent US20220304980A1, “METERED DOSING COMPOSITIONS AND METHODS OF USE OF P[…]” (SW Holdings, Inc, priority 2019, published 2022).

Test system: 5-HT2A/2C receptor
Settings: cited from earlier work

## CC[C@@H](CO)NC(=O)[C@@H]1C=C2c3cccc4c3c(cn4C)C[C@H]2N(C)C1 [Methysergide]
  effect on serotonin actions: inhibits the vasoconstrictive and pressor effects of serotonin as well as the serotonin actions on extravascular smooth muscle
